US7744921B2, “Liposome loading with metal ions” (Celator Pharmaceuticals, Inc., priority 2001, dated 2010)

Assay: Effect of buffer composition on precipitation of metal ion (20 mM histidine, triethanolamine to pH 7.4, visual inspection)
Format: physicochemical
Parameters: key: ppt: represents that the formation of a precipitate occurred after the addition of triethanolamine within a time course of 10 minutes; no ppt: represents that the formation of a precipitate did not occur after addition of triethanolamine to achieve a pH of 7.4 and within a time course of 10 minutes
Conditions: pH 7.4, 10 minutes
[1] = 150 mM metal in 20 mM histidine
[2] = 300 mM metal in 20 mM histidine

Nickel
no ppt: precipitation after addition of triethanolamine: Chloride [1] | precipitation after addition of triethanolamine: Sulfate [1] | precipitation after addition of triethanolamine: Chloride [2] | precipitation after addition of triethanolamine: Sulfate [2]
